Consider one compound from patent US20180360972A1, “THERAPEUTIC COMPOUNDS” (REGENTS OF THE UNIVERSITY OF MINNESOTA, priority 2017, published 2018).

Amino acid sequences for entries named in this document (tags omitted). A change or cut given only in a name is not applied to a line headed by its entry.
UniProt Q01727: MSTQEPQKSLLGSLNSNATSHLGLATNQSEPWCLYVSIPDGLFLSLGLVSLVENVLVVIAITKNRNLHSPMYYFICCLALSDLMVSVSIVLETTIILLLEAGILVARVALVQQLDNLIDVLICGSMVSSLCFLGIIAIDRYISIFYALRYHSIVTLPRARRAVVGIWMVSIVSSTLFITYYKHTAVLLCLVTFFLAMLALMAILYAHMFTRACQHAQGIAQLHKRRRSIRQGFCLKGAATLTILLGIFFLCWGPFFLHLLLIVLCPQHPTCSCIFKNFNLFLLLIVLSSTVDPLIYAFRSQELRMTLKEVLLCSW
UniProt P56450, whole entry, looked up: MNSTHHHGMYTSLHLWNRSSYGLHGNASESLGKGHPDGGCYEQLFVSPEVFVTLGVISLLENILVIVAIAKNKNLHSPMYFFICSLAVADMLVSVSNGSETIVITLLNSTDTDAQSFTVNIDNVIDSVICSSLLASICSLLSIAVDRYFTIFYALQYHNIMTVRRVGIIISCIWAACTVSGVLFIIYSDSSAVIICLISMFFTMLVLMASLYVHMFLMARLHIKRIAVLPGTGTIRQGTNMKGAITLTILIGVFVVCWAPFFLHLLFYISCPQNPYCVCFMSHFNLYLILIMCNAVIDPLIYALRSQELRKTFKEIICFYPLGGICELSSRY

Assay [1] has as its target T1, mMC1R (Mus musculus, UniProt Q01727). The assay is described as follows: mMC1R | Agonist EC50 (nM).
The target of assay [2] is T1, mMC1R. The experiment in a line: mMC1R | IC50 (nM) | Mean ± SEM.
A further assay concerns the target mMC4R (Mus musculus, UniProt P56450). The assay is described as follows: mMC4R | IC50 (nM) | Mean±SEM. The note with it: read-out: mMC4R | IC50 (nM) | Mean±SEM.

One may read the EC50 as the concentration that produces a half-maximal response. Low values mean higher potency in that assay, high ones lower potency in that assay. As usually defined, the IC50 is the concentration at which inhibition is half-maximal. In the case of `CC(=O)N[C@@H](Cc1c[nH]cn1)C(=O)N[C@H](Cc1ccccc1)C(=O)N[C@@H](CCCNC(=N)N)C(=O)N[C@@H](Cc1c[nH]c2ccccc12)C(N)=O` [CJL-1-14, Ac-His-DPhe-Arg-Trp-NH2], the EC50 at mMC1R [1] is 14.1 ± 2.6 nM. For the same compound, the IC50 against mMC1R [2] turned out to be 388 ± 52 nM; at mMC4R, 214 ± 55 nM.
